The record followed here is patent US20260306492A1 (BRISTOL-MYERS SQUIBB COMPANY, priority 2023, published 2026).

The assay relates to participants undergoing primary unilateral elective TKR surgery. The experiment in a line: Total venous thromboembolism (VTE) in TKR patients, AXIOMATIC-TKR.

In the case of `C[C@@H]1CCC[C@H](n2cnc(-c3cc(Cl)ccc3-n3cc(Cl)nn3)cc2=O)c2cc(ccn2)-c2c(cnn2C(F)F)NC1=O` [Milvexian, (5R,9S)-9-(4-(5-chloro-2-(4-chloro-1H-1,2,3-triazol-1-yl)phenyl)-6-oxopyrimidin-1 (6H)-yl)-2^1-(difluoromethyl)-5-methyl-2^1H-3-aza-1 (4,2)-pyridina-2 (5,4)-pyrazolacyclonaphan-4-one], the “total VTE rate” value runs as follows: (combined milvexian, 108 of 796) 13.6%; (milvexian BID dose regimens, 63 of 518) 12.2%.
